Assay results: publication doi:10.1101/2020.09.09.273011

Chains of the proteins cited; added tags and fusions are not shown. Residues count along the entry.
UniProt Q91ZI0, 32-3301: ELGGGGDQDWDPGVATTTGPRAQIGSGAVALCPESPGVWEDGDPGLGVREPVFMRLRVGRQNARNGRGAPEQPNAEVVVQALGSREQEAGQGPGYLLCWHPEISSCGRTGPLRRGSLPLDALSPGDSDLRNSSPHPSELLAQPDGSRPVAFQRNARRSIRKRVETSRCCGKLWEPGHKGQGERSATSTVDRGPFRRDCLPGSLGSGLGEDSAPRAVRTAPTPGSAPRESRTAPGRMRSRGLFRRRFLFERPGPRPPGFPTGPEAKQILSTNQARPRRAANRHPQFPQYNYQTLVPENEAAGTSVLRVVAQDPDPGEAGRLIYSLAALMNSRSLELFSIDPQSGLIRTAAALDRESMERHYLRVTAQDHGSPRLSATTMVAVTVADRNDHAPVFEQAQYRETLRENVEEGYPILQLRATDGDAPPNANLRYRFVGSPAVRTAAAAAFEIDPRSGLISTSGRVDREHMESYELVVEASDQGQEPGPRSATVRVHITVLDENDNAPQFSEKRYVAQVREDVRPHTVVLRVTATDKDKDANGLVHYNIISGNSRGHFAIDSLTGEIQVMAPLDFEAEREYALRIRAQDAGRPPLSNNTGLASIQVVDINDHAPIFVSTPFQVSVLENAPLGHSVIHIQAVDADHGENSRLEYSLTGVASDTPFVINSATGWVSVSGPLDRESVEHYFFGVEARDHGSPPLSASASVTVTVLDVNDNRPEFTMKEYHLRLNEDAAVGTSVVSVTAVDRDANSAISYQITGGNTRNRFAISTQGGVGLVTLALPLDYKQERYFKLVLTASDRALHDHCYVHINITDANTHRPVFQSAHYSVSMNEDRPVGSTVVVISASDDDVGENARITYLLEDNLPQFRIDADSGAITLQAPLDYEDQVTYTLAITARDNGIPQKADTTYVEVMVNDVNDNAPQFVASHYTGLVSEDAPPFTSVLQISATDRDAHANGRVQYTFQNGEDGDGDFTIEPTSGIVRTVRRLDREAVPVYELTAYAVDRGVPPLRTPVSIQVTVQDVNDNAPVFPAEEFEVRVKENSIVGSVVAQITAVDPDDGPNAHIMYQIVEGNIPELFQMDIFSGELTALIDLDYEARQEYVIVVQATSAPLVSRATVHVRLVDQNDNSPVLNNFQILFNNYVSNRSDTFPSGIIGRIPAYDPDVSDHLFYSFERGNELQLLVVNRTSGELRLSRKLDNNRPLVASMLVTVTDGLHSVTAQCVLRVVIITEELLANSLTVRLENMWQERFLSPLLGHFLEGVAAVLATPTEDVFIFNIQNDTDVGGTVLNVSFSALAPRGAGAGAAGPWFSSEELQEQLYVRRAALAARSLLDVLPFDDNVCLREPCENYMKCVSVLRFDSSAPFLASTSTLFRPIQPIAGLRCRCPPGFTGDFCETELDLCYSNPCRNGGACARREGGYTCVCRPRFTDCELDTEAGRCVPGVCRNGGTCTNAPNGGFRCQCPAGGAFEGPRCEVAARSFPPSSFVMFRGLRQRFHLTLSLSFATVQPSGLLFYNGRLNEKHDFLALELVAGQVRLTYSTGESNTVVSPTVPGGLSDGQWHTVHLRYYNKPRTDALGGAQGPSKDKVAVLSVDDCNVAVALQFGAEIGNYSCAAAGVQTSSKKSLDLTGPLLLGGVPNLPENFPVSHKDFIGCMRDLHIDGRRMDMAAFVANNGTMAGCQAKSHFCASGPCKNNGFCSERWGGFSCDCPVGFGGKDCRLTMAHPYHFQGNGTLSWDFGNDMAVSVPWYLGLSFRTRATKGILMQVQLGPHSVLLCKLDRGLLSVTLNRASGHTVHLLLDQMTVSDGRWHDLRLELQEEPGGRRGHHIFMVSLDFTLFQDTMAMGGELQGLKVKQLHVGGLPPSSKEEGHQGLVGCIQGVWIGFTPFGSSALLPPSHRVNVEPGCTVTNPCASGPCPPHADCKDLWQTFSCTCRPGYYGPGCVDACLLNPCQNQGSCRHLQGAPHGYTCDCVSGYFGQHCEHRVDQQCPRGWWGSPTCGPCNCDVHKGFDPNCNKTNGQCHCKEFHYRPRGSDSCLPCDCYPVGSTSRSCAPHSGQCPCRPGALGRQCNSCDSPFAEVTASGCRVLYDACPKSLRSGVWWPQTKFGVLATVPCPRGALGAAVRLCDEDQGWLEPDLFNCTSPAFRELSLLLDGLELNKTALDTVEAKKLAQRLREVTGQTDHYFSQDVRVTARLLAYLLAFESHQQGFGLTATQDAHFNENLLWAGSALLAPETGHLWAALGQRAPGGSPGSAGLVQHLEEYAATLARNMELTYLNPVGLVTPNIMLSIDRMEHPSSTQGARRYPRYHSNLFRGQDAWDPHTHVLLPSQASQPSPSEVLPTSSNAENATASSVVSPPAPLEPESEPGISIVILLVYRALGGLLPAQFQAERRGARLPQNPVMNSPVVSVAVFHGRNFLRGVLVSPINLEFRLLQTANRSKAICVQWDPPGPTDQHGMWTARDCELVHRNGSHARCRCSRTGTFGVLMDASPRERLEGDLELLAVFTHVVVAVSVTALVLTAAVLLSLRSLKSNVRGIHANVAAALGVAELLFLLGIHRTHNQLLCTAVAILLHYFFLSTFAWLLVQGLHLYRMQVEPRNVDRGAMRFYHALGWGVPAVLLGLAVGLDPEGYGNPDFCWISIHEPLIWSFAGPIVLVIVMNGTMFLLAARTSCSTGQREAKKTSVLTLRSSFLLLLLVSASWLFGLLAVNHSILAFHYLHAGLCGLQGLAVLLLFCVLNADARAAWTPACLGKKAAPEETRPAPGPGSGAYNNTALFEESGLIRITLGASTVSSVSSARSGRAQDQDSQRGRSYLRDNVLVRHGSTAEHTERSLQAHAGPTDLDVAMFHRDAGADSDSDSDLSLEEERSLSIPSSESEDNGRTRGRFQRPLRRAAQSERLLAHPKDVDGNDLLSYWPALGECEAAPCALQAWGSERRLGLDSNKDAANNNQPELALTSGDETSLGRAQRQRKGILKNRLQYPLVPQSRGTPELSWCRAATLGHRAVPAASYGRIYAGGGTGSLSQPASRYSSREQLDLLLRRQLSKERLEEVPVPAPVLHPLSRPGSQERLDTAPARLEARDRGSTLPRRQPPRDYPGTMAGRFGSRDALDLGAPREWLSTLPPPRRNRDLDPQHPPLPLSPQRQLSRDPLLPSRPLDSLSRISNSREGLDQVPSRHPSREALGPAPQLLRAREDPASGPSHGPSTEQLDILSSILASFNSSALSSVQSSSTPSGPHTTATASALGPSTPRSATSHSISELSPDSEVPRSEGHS
UniProt Q9NYQ7, 33-3312: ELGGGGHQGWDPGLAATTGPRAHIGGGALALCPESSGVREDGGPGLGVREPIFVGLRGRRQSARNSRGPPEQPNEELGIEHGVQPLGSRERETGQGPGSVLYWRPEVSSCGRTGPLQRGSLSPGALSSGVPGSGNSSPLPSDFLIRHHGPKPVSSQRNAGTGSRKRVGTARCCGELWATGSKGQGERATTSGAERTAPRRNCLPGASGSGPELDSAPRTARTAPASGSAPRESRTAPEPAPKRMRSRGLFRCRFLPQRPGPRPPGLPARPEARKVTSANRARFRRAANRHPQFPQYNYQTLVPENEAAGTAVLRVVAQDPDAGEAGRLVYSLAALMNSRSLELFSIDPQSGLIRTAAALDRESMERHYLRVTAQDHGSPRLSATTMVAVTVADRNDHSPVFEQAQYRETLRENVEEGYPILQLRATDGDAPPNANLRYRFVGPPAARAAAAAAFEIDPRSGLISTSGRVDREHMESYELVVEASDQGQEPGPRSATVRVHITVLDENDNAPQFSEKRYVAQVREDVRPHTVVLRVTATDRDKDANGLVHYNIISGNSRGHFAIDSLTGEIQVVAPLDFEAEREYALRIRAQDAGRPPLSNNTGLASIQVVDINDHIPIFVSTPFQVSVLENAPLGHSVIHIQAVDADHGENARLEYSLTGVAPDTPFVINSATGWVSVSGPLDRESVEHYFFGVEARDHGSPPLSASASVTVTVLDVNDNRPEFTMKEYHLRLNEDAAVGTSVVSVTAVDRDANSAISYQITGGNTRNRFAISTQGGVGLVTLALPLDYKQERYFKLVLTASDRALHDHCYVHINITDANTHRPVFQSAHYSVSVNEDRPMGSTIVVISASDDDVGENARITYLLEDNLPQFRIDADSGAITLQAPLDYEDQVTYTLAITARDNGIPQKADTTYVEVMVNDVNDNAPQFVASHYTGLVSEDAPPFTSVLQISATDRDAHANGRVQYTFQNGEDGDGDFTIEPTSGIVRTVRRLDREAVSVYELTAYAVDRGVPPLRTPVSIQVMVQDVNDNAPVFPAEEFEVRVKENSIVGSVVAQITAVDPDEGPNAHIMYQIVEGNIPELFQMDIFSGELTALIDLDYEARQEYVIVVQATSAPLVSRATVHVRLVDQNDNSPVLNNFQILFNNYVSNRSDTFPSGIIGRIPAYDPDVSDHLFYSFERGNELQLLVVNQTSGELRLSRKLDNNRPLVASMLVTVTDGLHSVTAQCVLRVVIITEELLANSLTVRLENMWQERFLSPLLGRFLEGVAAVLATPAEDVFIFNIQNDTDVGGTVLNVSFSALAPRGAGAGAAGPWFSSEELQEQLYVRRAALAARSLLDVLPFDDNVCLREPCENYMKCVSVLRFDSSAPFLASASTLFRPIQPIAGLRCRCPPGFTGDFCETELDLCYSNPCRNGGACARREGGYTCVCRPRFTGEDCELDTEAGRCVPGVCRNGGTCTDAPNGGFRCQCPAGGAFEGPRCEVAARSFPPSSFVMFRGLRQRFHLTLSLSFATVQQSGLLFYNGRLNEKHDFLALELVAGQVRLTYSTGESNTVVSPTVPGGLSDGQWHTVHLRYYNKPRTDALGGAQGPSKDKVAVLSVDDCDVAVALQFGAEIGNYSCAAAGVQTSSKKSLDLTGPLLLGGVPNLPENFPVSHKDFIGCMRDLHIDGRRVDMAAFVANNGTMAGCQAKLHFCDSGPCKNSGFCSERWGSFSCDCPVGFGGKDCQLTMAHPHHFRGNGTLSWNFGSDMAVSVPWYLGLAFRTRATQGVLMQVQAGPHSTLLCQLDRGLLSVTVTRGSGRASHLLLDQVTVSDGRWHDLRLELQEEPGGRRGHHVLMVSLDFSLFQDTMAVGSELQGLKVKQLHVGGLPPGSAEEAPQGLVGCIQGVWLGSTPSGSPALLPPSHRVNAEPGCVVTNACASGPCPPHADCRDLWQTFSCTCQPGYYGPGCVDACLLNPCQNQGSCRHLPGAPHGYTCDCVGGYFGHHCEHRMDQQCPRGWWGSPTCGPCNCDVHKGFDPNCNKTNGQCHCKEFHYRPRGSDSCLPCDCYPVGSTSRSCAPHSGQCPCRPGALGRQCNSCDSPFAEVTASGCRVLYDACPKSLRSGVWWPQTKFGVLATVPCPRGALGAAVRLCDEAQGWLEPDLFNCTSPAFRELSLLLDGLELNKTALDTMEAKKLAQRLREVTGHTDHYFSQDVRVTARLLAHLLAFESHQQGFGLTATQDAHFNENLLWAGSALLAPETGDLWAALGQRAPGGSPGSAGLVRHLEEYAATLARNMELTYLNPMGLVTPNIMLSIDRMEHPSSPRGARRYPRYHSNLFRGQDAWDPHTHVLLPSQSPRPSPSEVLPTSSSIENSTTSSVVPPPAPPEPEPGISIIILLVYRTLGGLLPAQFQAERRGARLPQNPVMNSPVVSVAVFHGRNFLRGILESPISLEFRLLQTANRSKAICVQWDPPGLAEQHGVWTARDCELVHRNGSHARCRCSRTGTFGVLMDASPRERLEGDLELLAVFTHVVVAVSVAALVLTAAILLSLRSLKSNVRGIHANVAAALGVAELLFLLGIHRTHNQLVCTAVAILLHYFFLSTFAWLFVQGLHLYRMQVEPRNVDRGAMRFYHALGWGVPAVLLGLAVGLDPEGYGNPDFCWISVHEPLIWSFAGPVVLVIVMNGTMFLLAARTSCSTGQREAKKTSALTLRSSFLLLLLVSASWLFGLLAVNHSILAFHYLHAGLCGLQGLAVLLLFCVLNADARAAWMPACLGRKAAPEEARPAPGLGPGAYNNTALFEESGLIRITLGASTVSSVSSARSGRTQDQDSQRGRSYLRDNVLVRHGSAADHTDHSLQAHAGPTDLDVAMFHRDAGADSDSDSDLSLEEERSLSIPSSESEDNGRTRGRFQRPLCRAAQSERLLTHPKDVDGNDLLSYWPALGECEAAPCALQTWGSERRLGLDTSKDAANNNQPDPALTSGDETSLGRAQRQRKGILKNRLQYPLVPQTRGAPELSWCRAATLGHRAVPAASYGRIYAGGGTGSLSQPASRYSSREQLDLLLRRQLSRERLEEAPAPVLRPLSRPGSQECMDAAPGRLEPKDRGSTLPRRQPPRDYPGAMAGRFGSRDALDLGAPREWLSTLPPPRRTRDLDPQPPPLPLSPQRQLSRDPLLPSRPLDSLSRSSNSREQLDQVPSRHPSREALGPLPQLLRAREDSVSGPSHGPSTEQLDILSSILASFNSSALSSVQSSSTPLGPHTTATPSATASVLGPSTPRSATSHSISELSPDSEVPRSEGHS

What was measured:
[1] = target: mouse Celsr3 (Celsr3-Flag) (mouse) (UniProt Q91ZI0); assay: saturation binding on transfected cells
[2] = target: human Celsr3 (hCelsr3-Flag) (human) (UniProt Q9NYQ7); assay: saturation binding on transfected cells

Substance | Kd [1] | Kd [2]
oligomeric Aβ42 (human biotin-beta-Amyloid (1-42), oligomerised) (from UniProt P05067) (peptide) | 40 nM | 
oligomeric Aβ42 (human biotin-beta-Amyloid (1-42), oligomerised) (from UniProt P05067) (peptide; biotin (position not stated)) |  | 70 nM
